Source: PubChem BioAssay AID602247 (The Scripps Research Institute Molecular Screening Center, 2012)
Only a part is listed here, and it is no random draw. The source made the active and inactive calls.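 The calls were made as follows: active = activation above the run cutoff, the mean activation of all test compounds plus 3 SD (cut at about 40% in these data); inactive = the rest.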

Test: nonselective calcium activators in parental CHO-K1 cells, primary screen, counter-screen for M1 PAM project, cell-based, Fluo-8 calcium fluorescence, full deck, 1536-well (AID 602247);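 also: peak over basal fluorescence ratio in a 140 s read after ATP addition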
Settings: parental CHO-K1, ATP EC20, Fluo-8 calcium fluorescence; at 3 µM; active compounds read high; 0% at ATP EC20, 100% at ATP max

Compound	activation
O=C(OC1CN2CCC1CC2)C12CC3CC(CC(C3)C1)C2 (stereo not given)	inactive: 18.6%
Cc1cc(=O)[nH]c(N[N+](=O)[O-])n1	inactive: -7.2%
O=P1(N(CCCl)CCCl)Nc2ccccc2N1	inactive: 5.96%
O=P1(N(CCCl)CCCl)OCCCN1CCCl (stereo not given)	inactive: 11.9%
COc1ccc2nc(NP(=O)(c3ccccc3)c3ccccc3)sc2c1	inactive: 7.31%
COc1cc(I)ccc1[As](=O)(O)O	inactive: 9.98%
O=[N+]([O-])c1cc(Oc2ccc([N+](=O)[O-])cc2C(F)(F)F)cc([N+](=O)[O-])c1	inactive: 1.77%
COc1ccc(N/C(=N/P(=O)(N2CCOCC2)N2CCOCC2)N2CCOCC2)cc1	inactive: 6.86%
C[As](=O)(O)c1cccc(C(=O)O)c1	inactive: 4.91%
O=[As](O)(c1ccc(O)cc1)c1ccccc1O	inactive: 17.8%
O=[N+]([O-])c1ccc(-c2cc([N+](=O)[O-])c(O)c([N+](=O)[O-])c2)cc1	inactive: -1.42%
Cc1ccc(OP(=O)(Nc2ccc([N+](=O)[O-])cn2)Oc2ccc(C)cc2)cc1	inactive: 11.2%
[N-]=[N+]=NC1CCCCC1NC(=O)c1cc([N+](=O)[O-])cc([N+](=O)[O-])c1 (stereo not given)	inactive: 7.35%
CC(Cc1ccc(O)cc1)NCC(O)c1cc(O)cc(O)c1 (stereo not given)	inactive: -0.31%
Cc1ccc2nc3c(c(C)c2c1)CC(C(Cl)Cl)S3 (stereo not given)	inactive: 22.8%
ClCCSc1nnc(-c2cccnc2)o1	inactive: 13.7%
CC(C)c1ccc(OP(=O)(Nc2ccccn2)Oc2ccccc2F)cc1 (stereo not given)	inactive: 0.66%
COC(=O)C1(C)COP(=O)(N2CCCCCC2)OC1 (stereo not given)	inactive: 20.9%
CCN(CC)C(=S)SC(NC=O)C(Cl)(Cl)Cl (stereo not given)	inactive: 3.73%
O=C(OC1CN2CCC1CC2)c1cccc2[nH]cnc12 (stereo not given)	inactive: -13.6%
CC(C)NC(=O)NP(=O)(Oc1ccccc1)Oc1ccccc1	inactive: -7.01%
O=[N+]([O-])c1cc([N+](=O)[O-])c(-c2ccn[nH]2)s1	inactive: -0.95%
O=C(O)C(O)c1ccc(N(CCCl)CCCl)cc1 (stereo not given)	inactive: -9.23%
CCOC(=O)Nc1ccc([As](=O)(O)O)c(O)c1	inactive: 18%
CC1CCNP(=O)(N(CCCl)CCCl)O1 (stereo not given)	inactive: 0.19%

Compound	activation
C/C=C1/CC(C)C(C)(O)C(=O)OCC2CCN3CCC(OC1=O)C23 (stereo not given)	inactive: 21.9%
COP(=O)(OC)N1CC1c1ccccc1 (stereo not given)	inactive: -15.2%
Cc1cc(SC(NC(=O)c2ccccc2)C(Cl)(Cl)Cl)nc(C(C)C)n1 (stereo not given)	inactive: 0.26%
CCOC(=O)Nc1cccc([As](=O)(O)O)c1	inactive: -3.29%
Cc1cc(SC(NC=O)C(Cl)(Cl)Cl)ncn1 (stereo not given)	inactive: 34%
O=P(Nc1ccccn1)(c1cccc2ccccc12)c1cccc2ccccc12	inactive: 23.4%
O=[N+]([O-])c1ccc(Nc2ccc(Oc3ccc([N+](=O)[O-])cc3[N+](=O)[O-])cc2)c([N+](=O)[O-])c1	inactive: -1.12%
COP1(=S)c2c(C)nn(CCC#N)c2N=C(c2ccc(F)cc2)N1C (stereo not given)	inactive: 17.4%
COC(=O)C1(C)COP(=O)(N2CCCC2)OC1 (stereo not given)	inactive: 8.14%
O=C(O)C(=O)c1ccc(N(CCCl)CCCl)cc1	inactive: 16.4%
O=C(COc1ccccc1)OC1CN2CCC1CC2 (stereo not given)	inactive: 11.8%
O=C(Nc1ccncc1[N+](=O)[O-])c1ccc([N+](=O)[O-])cc1[N+](=O)[O-]	inactive: -8.34%
O=C(OC1CN2CCC1CC2)c1cccc([N+](=O)[O-])c1 (stereo not given)	inactive: 24%
CSc1ccc(Nc2c([N+](=O)[O-])cc([N+](=O)[O-])cc2[N+](=O)[O-])cc1	inactive: 3.22%
CCOC(=O)c1ccc(NC(=O)C(C)(CCl)SC)cc1 (stereo not given)	inactive: 17.3%
CCC(C)N(CC(C)C)C(=S)SC(NC(C)=O)C(Cl)(Cl)Cl (stereo not given)	inactive: 15%
COc1ccc(C2=NCC(CBr)S2)cc1 (stereo not given)	inactive: 24.4%
Cc1ccc(NP(=O)(Oc2ccccc2)Oc2ccccc2)nc1	inactive: 6.81%
O=[N+]([O-])c1cc([N+](=O)[O-])c(CCNc2ccccc2)c([N+](=O)[O-])c1	inactive: 5.68%
CCc1nc2c(n1)c1c(non1O)c1c2no[n+]1[O-]	inactive: 4.79%
CC(=O)N1C2C3N(C(C)=O)C1C1N(C(C)=O)C(C(N1C(C)=O)N3C(C)=O)N2C(C)=O	inactive: 18.2%
O=[N+]([O-])c1cccc2n[nH]nc12	inactive: -5.92%
CCN(/C(=N/P(=O)(N1CCOCC1)N1CCOCC1)N1CCOCC1)c1ccc(OC)cc1	inactive: 26.7%
Nc1ccc([As](=O)(O)c2ccc(N)cc2)cc1	inactive: 6.18%
C[N+]1=C2C=CC=CC=C2SC12C([N+](=O)[O-])=CC([N+](=O)[O-])=C[C-]2[N+](=O)[O-] (stereo not given)	inactive: -13.8%
